Literature values, collected in US20060084109.

Target: T1, Formamidopyrimidine glycosylase (Fpg, MutM) (Escherichia coli) (UniProt P05523)
T1 sequence: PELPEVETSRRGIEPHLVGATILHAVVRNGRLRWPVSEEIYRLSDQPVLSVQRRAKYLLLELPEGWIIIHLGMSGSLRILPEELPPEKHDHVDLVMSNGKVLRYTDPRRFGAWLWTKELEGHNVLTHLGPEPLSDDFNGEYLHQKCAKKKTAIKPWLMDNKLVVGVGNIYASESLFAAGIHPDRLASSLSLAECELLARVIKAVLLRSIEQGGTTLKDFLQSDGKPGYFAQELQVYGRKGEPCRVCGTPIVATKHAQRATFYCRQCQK
Assay: filter
Conditions: CITED Vuyisich and Beal 2002; room temperature, 15 min

Substance | Kd
U1 control aptamer | 2.7 nM
N1 neomycin-regulated aptamer (91-mer) | 7.5 nM
